Results as given in US11124550B2, “Proteinaceous molecules and methods of use” (priority 2015, dated 2021).

Tested on: wild-type CA1 GABAergic inhibitory interneurons
Assay: Brain-slice whole-cell recordings, wild-type inhibitory interneurons
Assay type: cell-based, mouse
Settings: 10 nM
Procedure: Mice (post-natal day 14-16) were anaesthetized using isoflurane and sacrificed by decapitation. Brain slices (300-μm thick) were cut using a vibratome in the sagittal plane. Slices were kept at room temperature until recording. The slices were transferred to a recording chamber constantly perfused at 34° C. with artificial cerebrospinal fluid (CSF) solution consisting of: 125 mM NaCl, 2.5 mM KCl, 25 mM NaHCO3, 1.25 mM NaH2PO4, 1 mM MgCl2, 2 mM CaCl2) and 10 mM glucose, aerated with 95% O2 and 5% CO2 (final pH of 7.4). Whole-cell patch-clamp recordings were made using a MultiClamp 700A amplifier and pClamp acquisition software (Molecular Devices) from neurons visually identified using infrared differential interference contrast imaging (BX51, Olympus). Electrodes were pulled using a Sutter P-2000 puller (Sutter Instruments) from borosilicate micropipettes (World Precision Instruments) with an initial resistance of ˜2-3 megaohms and filled with intracellular solution consisting of 125 mM KGlu, 4 mM KCl, 2 mM MgCl2, 10 mM HEPES, 10 mM EGTA, 4 mM ATP-Mg, 0.3 mM GTP-Na, and 8 mM Biocytin Hydrochloride adjusted to a final pH of 7.3 with KOH. D-Mannitol was used to adjust osmolarity to 300 mOsm. Bridge balance was applied to all recordings. Voltage recordings were filtered at 30 kHz and sampled at 100 kHz. A holding current was injected into neurons if required, setting their holding potential to approximately −75 mV. A current injection/action potential (AP) frequency relationship was established by injecting an 800 ms square pulse of progressively depolarising currents. An automated AP detection algorithm in Axograph was used to detect AP with visual confirmation. The integrated number of APs between injection current bins of the i-o relationships was calculated (Axograph X) in order to allow comparison between control and Hm1a. AP threshold voltage was defined as the voltage at which velocity reached 10 mV/ms. For the AP waveform analysis, amplitude was measured from threshold to peak, rise-time was determined as the time between 10% to 90% of the AP amplitude and AP width was measured at 50% of the peak amplitude. AP measured at ‘collapse’ were selected for each individual cell at the first current injection at which AP collapse was robust. APs at the same current injection were analyzed in the presence of Hm1a. Membrane input resistance was measured in current clamp mode by measuring the last 200 ms of the voltage trace generated by a current injection of −10 pA.
The impact of the peptide on non-collapsing wild-type CA1 GABAergic inhibitory interneurons was also tested (FIG. 6). […] Hm1a had no impact on resting potential (Table 8) or input resistance (270±40 versus 330±40 MΩ, p=0.76, n=6) of the wild-type GABAergic inhibitory neurons. Further, no changes in any of the morphology measurements of APs analysed at rheobase were seen (Table 8).

CC(C)C[C@@H]1NC(=O)[C@H](Cc2ccc(O)cc2)NC(=O)[C@H](CCCNC(=N)N)NC(=O)[C@@H](NC(=O)[C@@H](N)CCC(=O)O)CSSC[C@@H]2NC(=O)[C@@H]3CSSC[C@@H](C(=O)N[C@@H](C)C(=O)N[C@@H](Cc4c[nH]c5ccccc45)C(=O)N[C@@H](CC(=O)O)C(=O)NCC(=O)N[C@H](C(=O)N[C@@H](Cc4ccccc4)C(=O)N[C@@H](CO)C(=O)O)[C@@H](C)O)NC(=O)[C@H](Cc4ccc(O)cc4)NC(=O)[C@H](CCCCN)NC(=O)[C@H](Cc4c[nH]c5ccccc45)NC(=O)[C@H](CC(=O)O)NC(=O)[C@H](CO)NC(=O)[C@H](CCCNC(=N)N)NC(=O)[C@H](CSSC[C@H](NC(=O)CNC(=O)CNC(=O)[C@H](Cc4ccccc4)NC1=O)C(=O)N[C@@H](CO)C(=O)N[C@@H](CO)C(=O)N[C@@H]([C@@H](C)O)C(=O)N[C@@H](CO)C(=O)N[C@@H](CC(=O)O)C(=O)N3)NC(=O)[C@H](CO)NC(=O)[C@H](CC(C)C)NC(=O)[C@H](Cc1c[nH]cn1)NC(=O)[C@H](CCCCN)NC2=O [Hm1a]
rheobase: no shift
input resistance (270±40 versus 330±40, p=0.76, no impact): 330±40 MΩ
current-AP relationship (at intermediate current injections, normalized at higher currents): small right shift
Action potential Rise at rheobase (control 0.49 ± 0.6): 0.43 ± 0.4 ms
Action potential Width at rheobase (control 1.4 ± 0.1): 1.3 ± 0.1 ms
RMP (control 79 ± 2): 79 ± 2 mV
Action potential Amp at rheobase (control 79 ± 9, n = 6): 79 ± 8 mV
Action potential Threshold at rheobase (control −44 ± 3): −38 ± 2 mV
